Measured values: the Kinase Knowledgebase extract (Sharma et al. 2016)

By UniProt entry, the sequences of proteins in these tests, tags left out.
UniProt Q16539, whole entry, looked up: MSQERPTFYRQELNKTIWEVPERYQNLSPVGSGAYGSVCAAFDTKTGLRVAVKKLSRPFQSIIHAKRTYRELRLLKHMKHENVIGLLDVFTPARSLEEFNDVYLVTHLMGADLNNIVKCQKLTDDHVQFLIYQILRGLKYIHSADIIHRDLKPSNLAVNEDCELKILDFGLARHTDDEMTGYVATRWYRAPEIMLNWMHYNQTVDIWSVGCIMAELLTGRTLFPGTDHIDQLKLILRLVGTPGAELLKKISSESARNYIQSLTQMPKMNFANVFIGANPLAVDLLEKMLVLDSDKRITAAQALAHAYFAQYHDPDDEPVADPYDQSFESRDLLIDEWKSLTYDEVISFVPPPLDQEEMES

Target: MAPK14 (human) (UniProt Q16539)
Assay: Enzyme Assay

| Kd [nM] | Ki [nM] | Compound |
| --- | --- | --- |
| 10 | 176 | CC(C)(C)c1cc(NC(=O)Nc2cccc3ccccc23)n(-c2cccc(C(=O)NCc3ccncc3)c2)n1 |
| – | 1400 | CC(C)(C)c1cc(NC(=O)Nc2cccc3ccccc23)n(-c2cccc(C(=O)NCCc3c[nH]c4ccccc34)c2)n1 |
| – | 1450 | CC(C)(C)c1cc(NC(=O)Nc2cccc3ccccc23)n(-c2cccc(C(=O)NCCc3ccc(N)cc3)c2)n1 |
| – | 1390 | CCN(CCOC)C(=O)c1cccc(-n2nc(C(C)(C)C)cc2NC(=O)Nc2cccc3ccccc23)c1 |
